From article PMC3717276, “Optimization and validation of mitochondria-based functional assay as a useful tool to identify BH3-like molecules selectively targeting anti-apoptotic Bcl-2 proteins” (BMC Biotechnology, 2013)

Molecular target: Human Bcl-2 protein (isoform 2 construct), N-terminal 6xHis tagged recombinant protein (human)
Test: fluorescence polarisation; competition: Mcl-1 (20 nM) or Bcl-2 (40 nM) pre-incubated with FAM-Bid (2 nM and 2.5 nM), tested BH3 peptide added, 2-3 h; 100 mM potassium phosphate, pH 7.5, 100 ug/ml bovine gamma globulin, 0.02% sodium azide; Ki calculated from IC50

Ki: < 1 nM
Substance: Bim BH3 peptide, 26-mer (residues 81-106)
